This note sets out measurements from patent USRE50282E1, “Specific modification of antibody with IgG-binding peptide” (KAGOSHIMA UNIVERSITY, priority 2015, dated 2025).

Protein sequences, listed by entry. Tags and fused reporters are not part of them. Residues count along the entry.
UniProt P24071, 22-287: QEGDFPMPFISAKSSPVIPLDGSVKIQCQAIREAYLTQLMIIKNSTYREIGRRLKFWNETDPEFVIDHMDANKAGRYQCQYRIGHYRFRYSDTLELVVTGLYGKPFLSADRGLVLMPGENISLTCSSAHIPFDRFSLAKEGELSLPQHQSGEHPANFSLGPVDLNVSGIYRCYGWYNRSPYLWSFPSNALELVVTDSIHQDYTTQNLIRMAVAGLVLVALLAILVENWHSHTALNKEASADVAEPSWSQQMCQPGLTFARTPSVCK

In one test the target is T1, IgA receptor (Homo sapiens, UniProt P24071).
T1 construct: HL60 cells highly expressing an IgA receptor; endogenous in cells; host or cells: HL60 (JCRB), differentiated for 6 days with 1.3% DMSO
Description: FACS antigen binding analysis on differentiated HL60 cells highly expressing IgA receptor (Example 10). In kind it is cell-based. As to conditions: primary antibody 200 nM; PE-labeled anti-human IgG polyclonal antibody as secondary.

Another test relates to SK-BR3 cells. Kind of test: Cell growth inhibition, Cell Counting Kit-8, 72 hours (Examples 11 and 12). In kind it is cell-based. As to conditions: antibody alone. As to the method:
After culture at 37° C. for 24 hours in a 5% CO2 incubator, 100 μL of a medium containing each concentration of the antibody-drug conjugate (ADC) prepared as described above was added to each well, and the cells were further cultured at 37° C. for 72 hours in a CO2 incubator. 10 μL of Cell Counting Kit-8 (Dojindo Laboratories) was added to each well. After incubation at 37° C. for 2 hours in a CO2 incubator, the absorbance at 450 nm was measured using a plate reader.
After culture at 37° C. for 24 hours in a 5% CO2 incubator, 100 μL of a medium containing each concentration of the antibody-drug conjugate (ADC) was added to each well, and the cells were further cultured at 37° C. for 72 hours in a CO2 incubator. 10 μL of Cell Counting Kit-8 (Dojindo Laboratories) was added to each well. After incubation at 37° C. for 2 hours in a CO2 incubator, the absorbance at 450 nm was measured using a plate reader.

For “anti-HER2 human antibody: anti-HER2 humanized IgG1 antibody (Chugai Pharmaceutical Co., Ltd.)”, in the test with IgA receptor, the “binding to HL60 cells (fluorescence shift)” value is recorded as “slight fluorescence shift”. Also, the cell growth inhibition entry with SK-BR3 cells is “no such cell growth inhibition was seen”.
